Reference: patent US12083178B2, “Anti-fibroblastic fluorochemical emulsion therapies” (priority 2010, dated 2024)

Assay: Delivery and retention of Herceptin at the tumor, immunohistochemistry of tumor biopsies
Format: in vivo
Conditions: detection antibody dilution 1:1500; aerosol delivery; FIG. 6, FIG. 7A
Method: The ability of aerosolized fluorochemicals to deliver bioagents to a target and enhance their retention at that site makes them a novel therapeutic agent. To analyze the effectiveness of fluorochemicals as a delivery vehicle, different amounts of a bioactive agent were administered to a subject and the target site and agent retention were examined.
In particular, an aerosolized fluorocarbon emulsion containing the anti-cancer agent Herceptin was administered to a subject. The aerosol contained 60% perflubron/egg yolk phospholipid emulsion. Tumor biopsies were collected and analyzed using immunohistochemistry techniques and antibodies for detecting Herceptin. Herceptin was detected using a dilution of 1:1500 of antibody in tumors collected from subjects treated with Herceptin only (FIG. 6). […] In these tumors, Herceptin could be detected using a dilution as much as 1:30,000 (FIG. 7B).

## trastuzumab [Herceptin]
  Herceptin detection in tumor biopsies by immunohistochemistry: detected
